Data taken from US11008622B2, “Biomarker for predicting sensitivity to EGFR-targeting agent, and use thereof” (THE ASAN FOUNDATION, priority 2014, dated 2021).

Tests used:
[1] = tested on: CaCo-2 colon cancer cell line; assay: Cell death by trypan blue cell counting; type: cell-based, human
Experimental: (§1) After 5, 10, and 20 μg/ml of cetuximab (Merck & Co., Inc, NJ, USA) were treated for 48 hours in CaCo2 and LIM1215 colon cancer cell lines in which the RON was not activated and a KM12C cell line in which the RON was activated, a cell solution was collected to perform trypan blue counting (FIG. 3A).
(§2) Accordingly, in order to analyze the cell death degree according to the RON activity when cetuximab was treated, as described above, in order to verify the cetuximab reactivity in the CaCo-2 colon cancer cell line and the LIM1215 cell line which had KRAS, NRAS, and BRAF wild type genes and had susceptibility to cetuximab and in which the RON was not activated, and the KM12C colon cancer cell line in which the RON was activated and which had the resistance to cetuximab, the cell death was analyzed by trypan blue cell counting.
(§3) The inventors observed the cell death for cetuximab after overexpressing Δ160 and Δ155 as the active forms of the RON in the CaCo-2 and SW48 colon cancer cell lines having the susceptibility to cetuximab in which the RON was not activated.

LIM1215 cell line = assay: Cell death by trypan blue cell counting; type: cell-based, human; conditions: LIM1215, RON not activated; 5, 10, 20 μg/ml, 48 hours; FIG. 5B
Experimental: as §1, §2

[2] = tested on: KM12C colon cancer cell line; assay: Cell death by trypan blue cell counting; type: cell-based, human
Experimental: as §1
KM12C colon cancer cell line in which the RON was activated was treated with RON siRNA for 48 hours, was treated with 20 μg/ml of cetuximab for 48 hours, and then the cell solution was collected to perform trypan blue counting. […]
as §2
The inventors analyzed the cell death by trypan blue cell counting by treating cetuximab after artificially inhibiting the RON by the siRNA technique in the KM12C colon cancer cell line having the resistance to cetuximab in which the RON was activated. […]

[3] = tested on: SW48 colon cancer cell line; assay: Cell death for cetuximab after overexpressing RON active forms; type: cell-based, human; conditions: SW48 overexpressing Δ160 and Δ155; FIG. 5F
Text: as §3

[4] = tested on: RON knockout KM12C colon cancer cell line; assay: Cell death in RON knockout isogenic cell line; type: cell-based, human; conditions: KM12C RON knockout (CRISPR/Cas9) #1 clone vs parent cell line; cetuximab for each concentration; FIG. 5H
Text: The inventors observed the cell death by treating cetuximab for each concentration in #1 clone with good RON knockout efficiency, in order to analyze the cell death and the cell growth for cetuximab by preparing a cell line in which the RON gene was knockout by using a CRISPR/Cas9 method in the KM12C colon cancer cell line having resistance to cetuximab in which the RON was activated.

EGFR = EGFR activation degree by western blot; type: cell-based, human; conditions: FIG. 5A
Experimental: (§4) In order to perform the western blot, a protein separated from each cell was separated through SDS-PAGE and transferred to polyscreen membranes (New England Nuclear, Boston, Mass., USA), reacted for 12 hours at 4° C. by using various antibodies (anti-phospho RON (MyBioSource, San Diego, Calif., USA), anti-phospho Tyrosine, anti-EGFR, anti-phospho EGFR (Cell signaling Technology, Beverly, Mass., USA), anti-RON, and anti-r-tubulin (Santa Cruz Biotechnology), and then washed with a 1×TBS-T buffer solution for 10 minutes three times. A suitable anti-rabbit-HRP or anti-mouse-HRP secondary antibody reacted for 2 hours at room temperature and was washed with the 1×TB S-T buffer solution for 10 minutes three times to verify the expression of the protein by using an ECL solution (Amersham, Buckinghamshire, UK).
Accordingly, the activation degree of the EGFR was observed by western blot by treating cetuximab for each time after artificially inhibiting the RON by an siRNA technique in the KM12C colon cancer cell line which had KRAS, NRAS, and BRAF wild type genes, had resistance to cetuximab and in which the RON was activated, as described above, in order to analyze the activity inhibition of the EGFR through the RON activity inhibition and the EGFR activity inhibition for cetuximab.

[5] = tested on: p-ERK protein, cleaved caspase-3; assay: Sub-signaling mechanism by western blot; type: cell-based, human; conditions: KM12C, RON expression inhibited by siRNA and cetuximab treated; FIG. 5D
Experimental: as §4
The inventors observed a sub-signaling mechanism through western blot by treating cetuximab after artificially inhibiting the RON by the siRNA technique in the KM12C colon cancer cell line having the resistance to cetuximab in which the RON was activated.

[6] = tested on: CaCo-2 colon cancer cell line; assay: Cell growth by colony formation method; type: cell-based, human; conditions: FIG. 5G
Text: The inventors observed the cell growth for cetuximab by a colony formation method by overexpressing the Δ160 variant as the active form of the RON in the CaCo-2 colon cancer cell line having the susceptibility to cetuximab in which the RON was not activated.

[7] = tested on: RON knockout KM12C colon cancer cell line; assay: Cell growth by colony formation method in RON knockout isogenic cell line; type: cell-based, human; conditions: KM12C RON knockout vs parent cell line; FIG. 5I
Text: The inventors observed the cell growth for cetuximab by a colony formation method by using a cell line in which the RON gene was knocked-out by using the CRISPR/Cas9 method in the KM12C colon cancer cell line having resistance to cetuximab in which the RON was activated.

[8] = tested on: RON knockout KM12C xenograft; assay: Tumor inhibition in in vivo xenograft model using RON knockout isogenic cell line; conditions: RON knockout xenograft mouse vs parent cell line; FIG. 6
Text: The inventors observed the tumor inhibition effect by cetuximab in an in vivo xenograft model by using a cell line in which the RON gene was knocked-out by using the CRISPR/Cas9 method in the KM12C colon cancer cell line having resistance to cetuximab in which the RON was activated.

colon cancer patients = assay: Relationship between cetuximab reactivity and RON activity in colon cancer patients; type: in vivo, human; conditions: colon cancer patients (double positive) prescribed with cetuximab; FIG. 8
Experimental: In order to analyze the RON activity, after a protein was extracted from a cell line or a colon cancer patient's tissue (by using a RIPA buffer), activity was verified by using a phospho-RON antibody (Mybiosource, MBS462024, dilution factor 1:1000) in 20 μg of the cells and 50 μg of the colon cancer patient's tissue.
Further, after immunoprecipitation was performed with the RON antibody (santa cruz; sc-322, Lot#G1514, 2 μg, incubation of 2 days) (by using 300 μg of the cell line and the colon cancer patient's tissue), phosphorylation was verified by a phospho-tyrosine antibody (Cell signaling; 9411, dilution factor 1:1000). In order to verify RONΔ155 and RONΔ160 (alternative splicing form) which were the RON active forms, RNA was extracted from the colon cancer cell line or the colon cancer patient's tissue with a trizol reagent.
The inventors analyzed a relationship between cetuximab reactivity and RON activity.

[9] = tested on: KM12C colon cancer cell line; conditions: KRAS, NRAS, BRAF wild type, Todd M. et al, PLOS 2014, FIG. 9; cited from earlier work
[10] = tested on: CaCo-2 colon cancer cell line; conditions: KRAS, NRAS, BRAF wild type, Giovanni B. et al, PLOS 2012; cited from earlier work

cetuximab
cell death by cetuximab ([1]; CaCo-2, RON not activated, 5, 10, 20 μg/ml, 48 hours, FIG. 5B): observed
cell death by cetuximab after overexpressing RON active forms ([1]; CaCo-2 overexpressing Δ160 and Δ155, FIG. 5F): cell death was inhibited
cell death by cetuximab (LIM1215 cell line): observed
cell death by cetuximab ([2]; RON activated, 5, 10, 20 μg/ml, 48 hours, FIG. 5B): not observed
cell death by cetuximab after inhibiting RON expression ([2]; RON siRNA 48 hours, then 20 μg/ml cetuximab 48 hours, FIG. 5C): cell death was increased
cell death by cetuximab after overexpressing RON active forms [3]: cell death was inhibited
cell death by cetuximab in RON knockout cell line [4]: cell death was increased
activity of EGFR over time on cetuximab treatment (EGFR; KM12C without inhibiting the RON): reduced and then increased over the time
activity of EGFR over time on cetuximab treatment (EGFR; KM12C, RON inhibited with siRNA): rapidly reduced and then not increase
cleaved caspase-3 (apoptosis marker protein) [5]: increased
p-ERK protein [5]: reduced
number of colonies ([6]; CaCo-2 overexpressing Δ160 variant of RON): not almost reduced
number of colonies ([6]; parent CaCo-2 cell line): reduced
number of colonies [7]: decreased
size of the tumor [8]: significantly reduced
susceptibility to cetuximab according to the RON activity (colon cancer patients): different susceptibility
response of cell line to cetuximab [9]: resistance
response of cell line to cetuximab [10]: susceptibility
